Test system: U937 monocytes
Assay: U937 monocyte cell death by trypan blue staining
Format: cell-based
Settings: LD50 in U937 / IC50 IL-1β in PBMC; 960 min

## c1ccc(-c2ccc(CNCCNCc3ccc(-c4ccccn4)cc3)cc2)nc1 [BC-1215]
  therapeutic index TI = LC50/IC50: 100
